Patent US6559164B1, “Substituted pyrroles suitable for continuous infusion” (Hoffmann-La Roche Inc., priority 1999, dated 2003)

Key:
[1] = Stability in solution for intravenous administration (release of 3-(1-methyl-3-indolyl)-4-(1-methyl-6-nitro-3-indolyl)-1H-pyrrole-2,5-dione); assay type: physicochemical; conditions: 72 hours at room temperature in a mixture of acetonitrile and saline or dextrose water; parent pyrrole-2,5-dione detected
Description: “Stability” is an overall assessment of the ability of a compound of formula I to withstand degradation in a typical solution used for the administration of drugs intravenously. Specifically, it refers to the ability of any given compound of formula I to release 3-(1-methyl-3-indolyl)-4-(1-methyl-6-nitro-3-indolyl)-1H-pyrrole-2,5-dione, over a 72 hour period in a mixture of acetonitrile and saline or dextrose water. The
“stability” of a compound of formula I is “very good” if the less than 1% 3-(1-Methyl-3-indolyl)-4-(1-methyl-6-nitro-3-indolyl)-1H-pyrrole-2,5-dione is detected, “good” if less than 2.5% 3-(1-Methyl-3-indolyl)-4-(1-methyl-6-nitro-3-indolyl)-1H-pyrrole-2,5-dione is detected, and “fair” if less than 5% 3-(1-Methyl-3-indolyl)-4-(1-methyl-6-nitro-3-indolyl)-1H-pyrrole-2,5-dione is detected after 72 hours incubation at room temperature.

[2] = Plasma conversion (degradation in plasma to the active metabolite); assay type: in vitro ADME; conditions: @ 30 min; human or rodent plasma at 37° C.; percent degradation
Description: “Plasma conversion” with respect to compounds of formula I means the degradation (enzymatic and/or non-enzymatic) of such compound in human or rodent plasma at 37° C. from 30 minutes to 6 hours to give 3-(1-methyl-3-indolyl)-4-(1-methyl-6-nitro-3-indolyl)-1H-pyrrole-2,5-dione, a pharmaceutically active metabolite of compounds of formula I, as well as pharmaceutically active metabolites thereof. This conversion is typically given as the percent degradation over a specified time frame.

Substance	Stability [1]	Plasma Conversion [2] [% @ 30 min]
O-[2-[[2,5-dihydro-3-(1-methyl-1H-indol-3-yl)-4-(1-methyl-6-nitro-1H-indol-3-yl)-2,5-dioxo-2,5-dihydro-pyrrol-1-yl]methoxycarbonyl]ethyl]-O′-methylpolyethylene glycol 2000 [Example 3b]	Good	80
O-[2-[[4-[[[2,5-Dihydro-3-(1-Methyl-1H-indol-3-yl)-4-(1-methyl-6-nitro-1H-indol-3-yl)-2,5-dioxo-1H-pyrrol-1-yl]methoxy]carbonyl]-1-piperidinyl]carbonyl]ethyl]-O′-methylpolyethylene Glycol 1000 [Example 13]	Good	
